PMC6519732 (Journal of medicinal chemistry, 2019)

Experiments:
[1] = tested on: Ac-α-tubulin in HL60 cells; test: Western blot of acetyl-α-tubulin in HL60 cells; format: cell-based; conditions: 4 h, normalized to DMSO
[2] = tested on: Ac-histone H3 in HL60 cells; test: Western blot of acetyl-histone H3 in HL60 cells; format: cell-based; conditions: 4 h, normalized to DMSO
T24 cells = conditions: T24, 48 h, compared with all tested HDAC inhibitors
MDA-MB-231 cells = conditions: MDA-MB-231, 48 h, compared with all tested HDAC inhibitors
human recombinant HDAC6 = biological target: T1, human recombinant HDAC6 (Homo sapiens, UniProt Q9UBN7); format: biochemical; conditions: from IC50 in place of Kd, T = 310 K
T1 sequence (Q9UBN7 1-1215): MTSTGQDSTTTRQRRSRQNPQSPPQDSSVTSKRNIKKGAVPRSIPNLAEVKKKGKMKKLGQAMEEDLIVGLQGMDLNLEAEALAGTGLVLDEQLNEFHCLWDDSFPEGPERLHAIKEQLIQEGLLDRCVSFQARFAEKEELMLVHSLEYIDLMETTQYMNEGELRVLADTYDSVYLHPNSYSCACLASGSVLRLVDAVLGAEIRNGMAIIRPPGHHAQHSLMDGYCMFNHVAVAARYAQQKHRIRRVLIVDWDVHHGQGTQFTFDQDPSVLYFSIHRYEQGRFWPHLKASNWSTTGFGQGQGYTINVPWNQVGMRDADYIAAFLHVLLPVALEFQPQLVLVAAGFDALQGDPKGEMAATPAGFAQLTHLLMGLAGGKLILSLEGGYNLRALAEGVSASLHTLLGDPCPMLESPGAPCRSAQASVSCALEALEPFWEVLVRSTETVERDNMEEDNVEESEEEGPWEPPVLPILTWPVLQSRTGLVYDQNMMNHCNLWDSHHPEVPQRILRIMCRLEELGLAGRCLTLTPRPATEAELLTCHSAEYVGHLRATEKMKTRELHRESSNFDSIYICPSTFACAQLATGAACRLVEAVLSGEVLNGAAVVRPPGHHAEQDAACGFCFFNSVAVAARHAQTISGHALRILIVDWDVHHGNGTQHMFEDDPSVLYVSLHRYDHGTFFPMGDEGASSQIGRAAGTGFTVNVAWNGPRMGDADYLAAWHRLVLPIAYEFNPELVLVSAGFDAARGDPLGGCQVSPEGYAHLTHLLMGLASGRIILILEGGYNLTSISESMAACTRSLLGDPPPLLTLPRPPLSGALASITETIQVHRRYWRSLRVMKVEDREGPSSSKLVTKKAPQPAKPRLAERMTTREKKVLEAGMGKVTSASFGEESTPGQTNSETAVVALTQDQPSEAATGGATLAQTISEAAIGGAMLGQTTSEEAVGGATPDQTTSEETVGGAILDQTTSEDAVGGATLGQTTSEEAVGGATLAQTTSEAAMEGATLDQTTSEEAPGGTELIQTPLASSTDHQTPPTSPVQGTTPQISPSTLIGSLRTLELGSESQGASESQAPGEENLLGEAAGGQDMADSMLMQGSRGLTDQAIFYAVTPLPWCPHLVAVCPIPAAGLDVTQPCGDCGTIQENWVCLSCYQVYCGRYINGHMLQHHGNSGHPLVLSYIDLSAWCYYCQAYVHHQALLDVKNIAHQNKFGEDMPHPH

Row | LE, HDAC6 (ligand efficiency) (human recombinant HDAC6) | Structure (SMILES) | Ac-tubulin/GAPDH ([1]; 0.1 μM) | Ac-tubulin/GAPDH ([1]; 1 μM) | Ac-tubulin/GAPDH ([1]; 10 μM) | Ac-H3/GAPDH ([2]; 0.1 μM) | Ac-H3/GAPDH ([2]; 1 μM) | Ac-H3/GAPDH ([2]; 10 μM) | apoptosis rate (in words) (T24 cells) | apoptosis rate (in words) (MDA-MB-231 cells)
1 | – | O=C(CCCCCCC(=O)Nc1ccccc1)NO [SAHA, suberoylanilide hydroxamic acid] | 3.79 | 9.97 | 9.52 | 1.52 | 1.91 | 2.80 | highest apoptosis rates | highest apoptosis rates
2 | 0.45 (kcal/mol)/non-H-Atom | O=C(NO)c1ccc(CN2c3ccncc3Sc3ncccc32)cc1 [Compound 7n, 4-[(5H-Dipyrido[2,3-b:4’,3’-e][1,4]thiazin-5-yl)methyl]-N-hydroxybenzamide] | – | – | – | – | – | – | – | –
